We go through one compound from US20100189786A1, “CRYSTALLINE TOLTERODINE TARTARATE AND A PHARMACEUTICAL COMPOSITION CONTAINING THE SAME” (priority 2006, published 2010).

A short description of the series: Solubility in water. Type of series: physicochemical.

Consider `Cc1ccc(O)c([C@H](CCN(C(C)C)C(C)C)c2ccccc2)c1.O=C(O)C(O)C(O)C(=O)O` [R-tolterodine tartarate, salt of 2-[(1R)-3-[bis(1-methylethyl)amino]-1-phenylpropyl]-4-methyl-phenol with (2R,3R)-2,3-dihydroxybutanedioic acid], for which, under “cold water”, the “solubility in cold water” value is “poorly soluble”. Besides, the solubility in water entry (water) was “poorly soluble”.
